Experimental data as given in patent publication US20100287663A1, “METHODS FOR PRODUCING PLANTS WITH ALTERED LEVELS OF SULPHATED SECONDARY METABOLITES” (PLANT BIOSCIENCE LIMITED, priority 2009, published 2010).

B1: Arabidopsis thaliana APS kinase Apk3 (At3g03900), recombinant (Arabidopsis thaliana) (protein)
chain: MSTVGNSTNIFWQESPIGKTERQKLLNQKGCVVWITGLSGSGKSTLACSLSRELNNRGKLSYILDGDNLRHGLNKDLGFKAEDRVENIRRVGEVAKLFADAGLICIASLISPYRKDRDACREMIQNSSFIEVFMNMSLQLCEARDPKGLYKLARAGKIKGFTGIDDPYESPLNCEIELKEKEGECPSPVAMAEEVISYLEDKGFLQNE
B2: Arabidopsis thaliana APS kinase Apk4 (At5g67520), recombinant, without target peptide (Arabidopsis thaliana) (protein)
chain: SGETKQINGKQKNIVWHDCPVTKSDRQELIKQKGCVIWITGLSGSGKSSLACALSRALHNRGKLSYILDGDNVRHGLNSDLSFEADDRAENIRRVGEVAKLFADSGIICIASLISPYRIERAACRALLPQGDFIEVFMDVPLHVCEARDPKGLYKRARAGKIKGFTGVDDPYEAPLDCEIVIQNSRDKGLSSSSSSSSSPSSSSSSLCEMADIVVSYLDQNGYLKKHSTKSRNCM
B3: Arabidopsis thaliana APS kinase Apk1 (At2g14750), recombinant, without target peptide (Arabidopsis thaliana) (protein)
chain: VSMDGSQTLSHNKNGSIPEVKSINGHTGQKQGPLSTVGNSTNIKWHECSVEKVDRQRLLDQKGCVIWVTGLSGSGKSTLACALNQMLYQKGKLCYILDGDNVRHGLNRDLSFKAEDRAENIRRVGEVAKLFADAGIICIASLISPYRTDRDACRSLLPEGDFVEVFMDVPLSVCEARDPKGLYKLARAGKIKGFTGIDDPYEPPLNCEISLGREGGTSPIEMAEKVVGYLDNKGYLQA
B4: Arabidopsis thaliana APS kinase Apk2 (At4g39940), recombinant, without target peptide (Arabidopsis thaliana) (protein)
chain: AVNVSAQASLTADFPALSETILKEGRNNGKEKAENIVWHESSICRCDRQQLLQQKGCVVWITGLSGSGKSTVACALSKALFERGKLTYTLDGDNVRHGLNRDLTFKAEHRTENIRRIGEVAKLFADVGVICIASLISPYRRDRDACRSLLPDGDFVEVFMDVPLHVCESRDPKGLYKLARAGKIKGFTGIDDPYEAPVNCEVVLKHTGDDESCSPRQMAENIISYLQNKGYLEG

Columns and labels:
[1] = target: Arabidopsis thaliana APS kinase Apk1 (At2g14750), recombinant, without target peptide (Arabidopsis thaliana, UniProt Q43295); details: Apk1, expressed in E. coli, purified
[2] = target: Arabidopsis thaliana APS kinase Apk2 (At4g39940), recombinant, without target peptide (Arabidopsis thaliana, UniProt O49196); details: Apk2, expressed in E. coli, purified
[3] = target: Arabidopsis thaliana APS kinase Apk3 (At3g03900), recombinant (Arabidopsis thaliana, UniProt Q9SRW7); details: Apk3, expressed in E. coli, purified
[4] = target: Arabidopsis thaliana APS kinase Apk4 (At5g67520), recombinant, without target peptide (Arabidopsis thaliana, UniProt Q84JF0); details: Apk4, expressed in E. coli, purified
[5] = substrate: Nc1ncnc2c1ncn2[C@@H]1O[C@H](COP(=O)(O)OS(=O)(=O)O)[C@@H](O)[C@H]1O; assay: purified protein, by the assay type; details: 28.0 °C

Molecule	Km [5]	further results
Nc1ncnc2c1ncn2[C@@H]1O[C@H](COP(=O)(O)OS(=O)(=O)O)[C@@H](O)[C@H]1O [APS, adenosine-5′-phosphosulphate]		Vmax [1]: 20.1 units mg units mg protein^−1; Vmax [2]: 10.6 units mg units mg protein^−1; Vmax [3]: 12.4 units mg units mg protein^−1; Vmax [4]: 12.7 units mg units mg protein^−1
B1	7.4 μM μM	
B2	2.1 μM μM	
B3	5.3 μM μM	
B4	1.0 μM μM	
